Measurements: paper PMC6172220, “Calcineurin B homologous protein 3 binds with high affinity to the CHP binding domain of the human sodium/proton exchanger NHE1” (Scientific Reports, 2006)

Key:
[1] = biological target: NHE1 657-700 (Homo sapiens) (UniProt P19634); details: cited from earlier work
[2] = biological target: NHE1 637-656 (Homo sapiens) (UniProt P19634); details: cited from earlier work
[3] = biological target: CTD: C-terminal region of the regulatory domain of human NHE1 (residues 633-815), hexa-histidine tagged (human) (UniProt P19634); experiment: SEC; analytical SEC, Superdex 200 increase 10/300 GL; 20 mM HEPES, 150 mM NaCl, 1 mM TCEP, pH 7.2 with 10 mM CaCl2; CaM:CTD 2:1 (40 uM CaM + 20 uM CTD), CHP3:CTD equimolar; peak fractions checked by SDS-PAGE

Substance: calmodulin (from UniProt P0DP23)
- Kd [1]: 0.35 µM
- Kd [2]: 0.02 µM

Substance: human calmodulin (CaM), His-tagged (from UniProt P0DP23 2-149) (natural protein)
- stoichiometry N [3]: 1
